Key:
Experiment in all cases: Secondary dose-response HTS, Cell Titer Glo; call rule not given here
[1] = test system: CMK; assay type: cell-based; conditions: Homo sapiens, read-out: average effective concentration, CMK
[2] = test system: MOLM-13; conditions: secondary high-throughput screen
[3] = test system: MV4-11; conditions: secondary high-throughput screen
[4] = test system: CHRF288-11; conditions: Homo sapiens, read-out: average effective concentration, CHRF288-11
[5] = test system: M07e; conditions: Homo sapiens, M-07e, read-out: average effective concentration, M07e
[6] = test system: ML2; conditions: Homo sapiens, ML-2, read-out: average effective concentration, ML-2
[7] = test system: U937; conditions: Homo sapiens, U-937, read-out: average effective concentration, U937

In the case of N#CC[C@H](C1CCCC1)n1cc(-c2ncnc3[nH]ccc23)cn1 [Ruxolitinib, ruxolitinib], the EC50 [1] is reported as 8.2 µM, the “average effective concentration, MOLM-13” value [2] is reported as “Inactive” and the “average effective concentration, MV4-11” value [3] is reported as “Inactive”. It also gave an EC50 [4] greater than 10 µM, an EC50 [5] of 10 µM and an EC50 [6] of 10 µM. It also gave an EC50 [7] of 3.4 µM.

Source: paper PMC6522510 (Nature Communications, 2019)
